Experimental data: PubChem BioAssay AID2553 (Johns Hopkins Ion Channel Center, 2010)
This is a selection; strong and weak results do not stand in their true shares. Calls of active or inactive are those of the source.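 Rule for the calls: active = B-score under library mean minus 3 SD, initial fluorescence not abnormally high, positive integrated signal ratio; inactive = the rest.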

Protein sequences, listed by entry. Tags and fused reporters are not part of them.
UniProt Q61143, whole entry: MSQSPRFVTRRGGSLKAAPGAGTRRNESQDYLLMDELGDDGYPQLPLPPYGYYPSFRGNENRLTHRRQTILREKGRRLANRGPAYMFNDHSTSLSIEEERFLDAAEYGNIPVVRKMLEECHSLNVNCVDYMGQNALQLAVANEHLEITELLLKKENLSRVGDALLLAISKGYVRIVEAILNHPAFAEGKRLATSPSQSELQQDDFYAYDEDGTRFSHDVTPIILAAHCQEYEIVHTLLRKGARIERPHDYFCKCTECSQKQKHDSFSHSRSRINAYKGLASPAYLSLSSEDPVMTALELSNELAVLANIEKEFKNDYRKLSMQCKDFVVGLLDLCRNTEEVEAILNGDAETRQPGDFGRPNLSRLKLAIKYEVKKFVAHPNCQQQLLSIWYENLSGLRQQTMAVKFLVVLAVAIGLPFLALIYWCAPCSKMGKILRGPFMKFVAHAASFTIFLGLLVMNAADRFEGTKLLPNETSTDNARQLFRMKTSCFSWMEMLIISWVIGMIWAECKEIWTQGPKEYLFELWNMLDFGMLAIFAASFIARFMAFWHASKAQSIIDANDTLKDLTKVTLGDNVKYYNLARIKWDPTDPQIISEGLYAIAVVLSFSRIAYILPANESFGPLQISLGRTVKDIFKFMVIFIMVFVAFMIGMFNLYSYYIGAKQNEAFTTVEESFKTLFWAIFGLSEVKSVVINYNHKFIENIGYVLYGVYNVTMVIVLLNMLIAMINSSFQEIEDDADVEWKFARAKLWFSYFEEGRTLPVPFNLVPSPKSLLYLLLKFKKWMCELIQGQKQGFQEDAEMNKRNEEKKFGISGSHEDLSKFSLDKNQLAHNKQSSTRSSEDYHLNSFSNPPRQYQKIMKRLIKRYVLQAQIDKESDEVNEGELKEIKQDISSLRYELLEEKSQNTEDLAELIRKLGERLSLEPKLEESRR

molecular target: Short transient receptor potential channel 6 (Mus musculus) (UniProt Q61143); experiment: mouse TRPC6 channel inhibitors, primary screen, cell-based, HEK293, membrane potential dye (AID 2553); details: ACh-evoked depolarization, at 10 µM; stronger effect = lower value;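 for B-score: B-score derived from integrated fluorescence ratio over the kinetic read; more negative B-score means stronger inhibition of depolarization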

Structure (SMILES) | outcome | B-score
Clc1ccc(Cl)c(NC2=NCC(CBr)S2)c1 (configuration not stated) | inactive | –
CN(C)CCOC(=O)C(O)(c1ccccc1)C1CCCC1 (configuration not stated) | – | active: -10.1
Cc1c(NP(C)(=O)Oc2ccc(C(C)C)cc2)c(=O)n(-c2ccccc2)n1C (configuration not stated) | inactive | –
Nc1cc(N)c2nonc2c1[N+](=O)[O-] | inactive | –
CC(C)CC(=O)NC(Sc1ccc(Cl)cc1)C(Cl)(Cl)Cl (configuration not stated) | inactive | –
O=[N+]([O-])c1cc([N+](=O)[O-])c(Nc2ccccn2)c([N+](=O)[O-])c1 | inactive | –
Oc1ccccc1CNc1ccccn1 | inactive | –
O=C(NC(Sc1ccncn1)C(Cl)(Cl)Cl)c1ccccc1 (configuration not stated) | inactive | –
Cc1c2non([O-])c-2c(C)[n+](=O)[n+]1[O-] | inactive | –
CP(=O)(Nc1ccccn1)Oc1ccccc1 (configuration not stated) | inactive | –
COc1ccccc1OP(C)(=O)Nc1ccc(C)cc1C (configuration not stated) | inactive | –
CCc1ccc(OP(C)(=O)O)cc1 | inactive | –
CCN(CC)CC(O)COC(=O)C(O)(c1ccccc1)C1CCCCC1 (configuration not stated) | – | active: -6.24
COc1ccc(C2=NCC(CBr)S2)cc1 (configuration not stated) | inactive | –
COc1ccc(OP(C)(=O)Nc2ccc(Br)cc2)cc1 (configuration not stated) | inactive | –
O=[N+]([O-])c1cccc2n[nH]nc12 | inactive | –
CC(=O)N1C2C3N(C(C)=O)C1C1N(C(C)=O)C(C(N1C(C)=O)N3C(C)=O)N2C(C)=O | inactive | –
COc1ccccc1OP(C)(=O)Nc1c(C)n(C)n(-c2ccccc2)c1=O (configuration not stated) | inactive | –
O=C(OCCCN1CCCC1)C(O)(c1ccccc1)C1CCCCC1 (configuration not stated) | – | active: -9.95
Cc1ccc(NP(=O)(Oc2ccccc2)Oc2ccccc2)nc1 | inactive | –
CP(=O)(Oc1ccccc1)N1CCOC1=O (configuration not stated) | inactive | –

Structure (SMILES) | outcome | B-score
CCc1ccc(OP(C)(=O)Nc2cccnc2)cc1 (configuration not stated) | inactive | –
CCc1nc2c(n1)c1c(non1O)c1c2no[n+]1[O-] | inactive | –
O=[N+]([O-])c1cc([N+](=O)[O-])c(CCNc2ccccc2)c([N+](=O)[O-])c1 | inactive | –
COc1ccccc1OP(C)(=O)Nc1ccccc1Br (configuration not stated) | inactive | –
CC(C)(C)c1ccc(OP(C)(=O)O)cc1 | inactive | –
Nc1ccc([As](=O)(O)c2ccc(N)cc2)cc1 | inactive | –
C[N+]1=C2C=CC=CC=C2SC12C([N+](=O)[O-])=CC([N+](=O)[O-])=C[C-]2[N+](=O)[O-] (configuration not stated) | inactive | –
CCN(/C(=N/P(=O)(N1CCOCC1)N1CCOCC1)N1CCOCC1)c1ccc(OC)cc1 | inactive | –
CP(=O)(Nc1ccc(Cl)cc1)Oc1ccc(F)cc1 (configuration not stated) | inactive | –
CN(C)C(=O)c1c([N+](=O)[O-])cc([N+](=O)[O-])cc1[N+](=O)[O-] | inactive | –
CC(C)=N/N=C(\N)N[N+](=O)[O-] | inactive | –
CN(C)C(=O)OCCc1n(C)cc[n+]1C | inactive | –
CC1CCN(C(=O)Oc2c(Cl)cc(Cl)c3cccnc23)CC1 | inactive | –
Nc1ccc2c(ccc3cccnc32)n1.O=[N+]([O-])c1cc([N+](=O)[O-])c(O)c([N+](=O)[O-])c1 | inactive | –
CCOC(=O)c1ccc(NP(C)(=O)Oc2ccc(Cl)cc2)cc1 (configuration not stated) | – | active: -8.2
O=C(Nc1cc([As](=O)(O)O)ccc1O)c1ccccc1 | inactive | –
CP(=O)(OC12CC3CC(CC(C3)C1)C2)OC12CC3CC(CC(C3)C1)C2 | inactive | –
CC(C)(C)C(=O)NC(Sc1ccncn1)C(Cl)(Cl)Cl (configuration not stated) | inactive | –
O=[N+]([O-])c1ncn(CCn2ncnc2[N+](=O)[O-])n1 | inactive | –
O=[N+]([O-])c1cccc(NC2=NCC(CBr)S2)c1 (configuration not stated) | inactive | –
O=C(O)CNc1ccc([As](=O)(O)O)cc1 | inactive | –
